One molecule from patent publication US7220575B2, “Melanoma differentiation associated gene-5 and promoter and uses thereof” (priority 2000, dated 2007) can be followed below.

“Also recorded” adds a separate entry of the source.

The subject of assay [1] is mda-5 expression. In words: Northern blot analysis of mda-5 expression in HO-1 human melanoma cells. Type of assay: cell-based. The conditions noted are these: HO-1 cells. The procedure:
FIGS. 2A–2B. Northern blot analysis of mda-5 expression by various compounds inducing differentiation in HO-1 human melanoma cells. RNA samples were extracted from cells treated as indicated for 24 hr. FIG. 2A. HO-1 human melanoma cells. FIG. 2B. Early passage human skin fibroblast cells. Northern hybridization was performed as in Materials and Methods.
FIGS. 4A–4B. Northern blot analysis of mda-5 expression by ligands for various membrane receptors. RNA samples were extracted from cells treated as indicated for 24 hr. FIG. 4A. HO-1 human melanoma cells. FIG. 4B. Early passage human skin fibroblast cells. Northern hybridization was performed as in Materials and Methods.
FIG. 5. Northern blot analysis and time course of mda-5 expression. RNA samples were extracted from HO-1 cells treated with the indicated reagents and harvested at the indicated time after treatment. Northern blotting was performed as in Materials and Methods.
FIGS. 7A–7C. […] A. Northern blot analysis of mda-5. […] Cells were harvested at the indicated time after actinomycin D treatment. Northern hybridization was performed as in Materials and Methods. FIG. 7B. Nuclear run-on assays for determining mda-5 transcription rates. Nuclei were prepared from HO-1 melanoma cells treated with the indicated reagent(s) for 4 hr. Blots were prepared and hybridized as described in Materials and Methods. […] FIG. 7C. […]

Assay [2] relates to mda-5 expression. In words: Northern blot analysis of mda-5 expression in early passage human skin fibroblast cells. The assay is classed as cell-based. The procedure: FIGS. 2A–2B. Northern blot analysis of mda-5 expression by various compounds inducing differentiation in HO-1 human melanoma cells. RNA samples were extracted from cells treated as indicated for 24 hr. FIG. 2A. HO-1 human melanoma cells. FIG. 2B. Early passage human skin fibroblast cells. Northern hybridization was performed as in Materials and Methods. Abbreviations and concentration of the indicated reagents are as follows: ctl, control; DMSO, 0.1% dimethyl sulfoxide; EtOH, 0.25% final concentration of ethanol; Mez, mezerein 10 ng/ml; IFN-β, 2,000 U/ml interferon-β; IFN-β+Mez, 2,000 U/ml interferon-β plus mezerein 10 ng/ml; IFN-γ, interferon-γ 100 U/ml; IFN-γ+Mez, interferon-γ 100 U/ml plus mezerein 10 ng/ml; RA, all-trans-retinoic acid 2.5 B5M (dissolved in EtOH): MPA, mycophenolic acid 3 BSM; TPA,12-O-tetradecanoylphorbol-13-acetate 16 nM; cAMP, 3′–5′ cyclic adenosine monophosphate 1 mM; 8-Br-cAMP, 8-bromo-3′–5′ cyclic adenosine monophosphate 1 mM; 8-Br-cAMP, 8-bromo-3′–5′ cyclic adenosine monophosphate 1 mM; MMS, methylmethane sulfonate 10 ng/ml; poly IC 10 μg/ml.
FIGS. 4A–4B. Northern blot analysis of mda-5 expression by ligands for various membrane receptors. RNA samples were extracted from cells treated as indicated for 24 hr. FIG. 4A. HO-1 human melanoma cells. FIG. 4B. Early passage human skin fibroblast cells. Northern hybridization was performed as in Materials and Methods. […]

In the next assay the test system is mda-5 transcription. In words: Nuclear run-on assays for mda-5 transcription rates in HO-1 melanoma cells. The conditions noted are these: HO-1 cells treated 4 hr. Type of assay: cell-based, human. As for the experimental part: FIGS. 7A–7C. […] A. Northern blot analysis of mda-5. HO-1 melanoma cells were treated with 5 μg/ml actinomycin D 24 hr after incubation with 2,000 U/ml IFN-β or 2,000 U/ml IFN-β+10 ng/ml Mez. Cells were harvested at the indicated time after actinomycin D treatment. Northern hybridization was performed as in Materials and Methods. FIG. 7B. Nuclear run-on assays for determining mda-5 transcription rates. Nuclei were prepared from HO-1 melanoma cells treated with the indicated reagent(s) for 4 hr. Blots were prepared and hybridized as described in Materials and Methods. Abbreviations and concentrations of the indicated reagents are as follows: mda-5 5′ and 3′ fragment of mda-5 cDNA, respectively; ctl, control; Mez, mezerein 10 ng/ml; IFN-β, 2,000 U/ml interferon-β; IFN-β+Mez, 2,000 U/ml interferon-β plus mezerein 10 ng/ml. FIG. 7C. Northern blot analysis of mda-5 expression after blocking protein synthesis by cycloheximide (CHX). RNA samples were extracted from HO-1 melanoma cells pretreated with 50 μg/ml cycloheximide for 30 min and treated with the indicated reagents for 8 hr. Abbreviations and concentrations of indicated reagents are as in FIG. 4.
Northern Blot Analyses and Nuclear Run-On Assays: Total cellular RNA samples were prepared by guanidium isothiocyanate/phenol extraction followed by isopropanol precipitation. […]

The test system of the next assay is mda-5 promoter. In words: mda-5 promoter luciferase reporter in HO-1 cells (transient and stable clones). Type of assay: cell-based, human. As for the experimental part: FIG. 11: Screening of stable human HO-1 melanoma clones for promoter activity of stably integrated mda-5 reporter construct. Transfected HO-1 cells were selected by Puromycin drug selection and individual colonies analyzed for induction of luciferase activity in the presence of IFN-β. Values are expressed as fold change against uninduced values of luciferase activity.
FIG. 12: Induction kinetics of mda-5 promoter activity. Stable clones #20 and #40 were treated with IFN-β and samples were harvested and analyzed for luciferase activity at the times indicated.
FIG. 13: Responsiveness of the mda-5 promoter to IFN-β levels: Stable clones #20 and #40 were treated with IFN-β and samples were harvested and analyzed for luciferase activity 48h after initiation of treatment. The extent of activity was normalized based on equivalent protein content and performed in duplicate for each clone.
FIGS. 14A–14B: Responsiveness of the mda-5 promoter to various inducers: FIG. 14A. HO-1 cells transiently transfected with the mda-5 reporter and treated for 48 h with equivalent units of IFNs α, β and γ and TNF-α and poly IC:IC. The luciferase activity was expressed as fold increase over untreated control cells. FIG. 14B. Clone #40 was treated with equivalent units of the indicated IFNs for 48 h and luciferase activity expressed as fold activation over untreated cells determined.
Having confirmed that induction of Mda-5 mRNA occurred primarily at the transcriptional level, it was decided that regulatory genomic DNA sequences involved in this process should be isolated and characterized. To achieve this goal, a human genomic DNA library constructed in a Bacterial Artificial Chromosome vector (BAC, Genome Systems Inc.) was screened using the mda-5 cDNA as a probe. Two rounds of screening were performed to obtain two overlapping clones that spanned the entire mda-5 genomic locus including several thousand bp of sequence upstream of the translational initiation codon. Mapping of the BAC clone containing the upstream region by restriction enzyme digestion, Southern blotting and sequence analysis permitted the identification of DNA fragments that contained potentially important regulatory sequences, which in the case of most protein coding genes lie upstream of the transcription initiation site. An approximately 7 kb HindIII fragment containing a partial first exon (including the initiator methionine) and approximately 6 kb of upstream sequence (FIG. 10) was subcloned into the HindIII site of the promoterless luciferase reporter vector, pGL3 (Promega). […] To circumvent this problem, a small deletion of DNA sequences containing the mda-5 initiator methionine was carried out using a BstXI restriction digestion (FIG. 10) followed by blunt ending the incompatible end overhangs and recircularization of plasmid by ligation.
The modified mda-5 reporter construct was transfected into parallel sets of HO-1 cells that were treated or not with IFN-β. […] It therefore appeared that the cloned regulatory genomic DNA sequence in the reporter construct contained the elements required for the regulation of the mda-5 gene. It was however, necessary to confirm that the cloned sequences contained all the regulatory elements involved in the transcriptional control of the endogenous cellular gene. […]
On the technique in general: Reporter assays use an easily measured gene product as a stand-in for the process of interest.

Assay [3] deals with mda-5 expression. Briefly: Northern blot analysis of mda-5 expression induced by IFN-β in normal and tumor cell lines. Type of assay: cell-based. Conditions: additional human melanoma cells, normal and tumor cell lines of diverse origin; 2,000 U/ml, 24 hr. As for the experimental part: FIG. 3. Northern blot analysis of mda-5 expression induced by IFN-β in normal and tumor cell lines. RNA samples were extracted from the indicated cells treated with 2,000 U/ml of interferon-β for 24 hr. Northern hybridization was performed as in Materials and Methods.
Northern Blot Analyses and Nuclear Run-On Assays: Total cellular RNA samples were prepared by guanidium isothiocyanate/phenol extraction followed by isopropanol precipitation. Ten 10 μg of total RNA were resolved in 1% agarose gels with formaldehyde and were transferred to Nylon membranes. EcoRI fragment of mda-5 cDNA (2.5 kb) was labeled with 32P using a multiprime labeling kit (Boehringer Mannheim) and used to probe the transferred membrane. Nuclear run-on assays were performed as previously described ((17) Su et al., 1993, 1999). Probes used for nuclear run-on assays were prepared by RT-PCR and included the mda-5 5′, 9–837 bp; mda-5 3′, 2531–3365 bp; and GAPDH fragment.

B1: IFN-β: recombinant human fibroblast interferon (protein, UniProt P01574 22-187, looked up)
Interferon beta: MSYNLLGFLQRSSNFQCQKLLWQLNGRLEYCLKDRMNFDIPEEIKQLQQFQKEDAALTIYEMLQNIFAIFRQDSSSTGWNETIVENLLANVYHQINHLKTVLEEKLEKEDFTRGKLMSSLHLKRYYGRILHYLKAKEYSHCAWTIVRVEILRNFYFINRLTGYLRN
Turning to B1, in the assay on mda-5 expression [1] (treated 24 hr, Northern blot), the “mda-5 expression (steady-state mda-5 message level)” value is listed as “induce mda-5 expression; also recorded: dramatically increases”. Further, the “induction of the endogenous mda-5 gene” value in the assay with mda-5 expression [1] (Northern blot analyses) is given as “around 10 fold”. Besides, the mda-5 expression entry was “induce mda-5 expression” with mda-5 expression [2] and “induction of mda-5 expression” in the assay with mda-5 expression [3]. In addition, the “mda-5 transcription (nuclear run-on)” value with mda-5 transcription is listed as “greatly increased mda-5 transcription”. The “responsiveness of mda-5 promoter construct / clones to inducer” value in the assay with mda-5 promoter (HO-1 cells, luciferase) is “most responsive”. Besides, the “induction of luciferase activity in clone #20, initial screen” value in the assay on mda-5 promoter (stable clone #20, much lesser fold activation on subsequent analysis) is more than 1000 fold. In addition, the “measurable level detectable by luciferase read out” value in the assay with mda-5 promoter (stable clones #20 and #40, 48h) is reported as 0.2 U. Further, the “induction of luciferase activity in stable HO-1 promoter clones” value in the assay on mda-5 promoter (stable clones, varies between clones) is given as 0–150 fold. The “luciferase activity of modified mda-5 reporter, treated versus untreated controls” value in the assay with mda-5 promoter (transiently transfected HO-1 cells) is “around 10 fold”.
